This note sets out measurements from patent US20080207574A1 (UNIVERSITY OF KENTUCKY RESEARCH FOUNDATION, published 2008).

For the test, the target named is 43 kDa β-actin (bovine, UniProt P60712 2-375). The test can be described thus: co-isolation from BAEC lysate on NEUTRAVIDIN affinity column by way of WFA-B-labelled vimentin, SDS-PAGE with Coomassie stain.

B1: vimentin (56 kDa protein) from bovine aortic endothelial cells, modified by WFA-B (other)
chain: STRSVSSSSYRRMFGGPGTASRPSSTRSYVTTSTRTYSLGSALRPTTSRTLYTSSPGGVYATRSSAVRLRSGVPGVRLLQDSVDFSLADAINTEFKNTRTNEKVELQELNDRFANYIDKVRFLEQQNKILLAELEQLKGQGKSRLGDLYEEEMRELRRQVDQLTNDKARVEVERDNLAEDIMRLREKLQEEMLQREEAESTLQSFRQDVDNASLARLDLERKVESLQEEIAFLKKLHDEEIQELQAQIQEQHVQIDMDVSKPDLTAALRDVRQQYESVAAKNLQEAEEWYKSKFADLSEAANRNNDALRQAKQESNEYRRQVQTLTCEVDALKGTNESLERQMREMEENFSVEAANYQDTIGRLQDEIQNMKEEMARHLREYQDLLNVKMALDIEIATYRKLLEGEESRISLPLPNFSSLNLRETNLDSLPLVDTHSKRTLLIKTVETRDGQVINETSQHHDDLE
modifications: covalent adduct of the biotinylated withaferin A analog WFA-B; the filing maps the WFA adduct to the sole cysteine (position 327 in hamster vimentin, 328 in human vimentin); not mapped on the bovine protein
notes: Endogenous full-length protein from a cell lysate; also called WFA-B-modified vimentin; intermediate filament type III protein vimentin
With B1, the binding result was “binds”.
